# Reference: patent US20100016367A1, “BIS-PYRINIDIUM COMPOUNDS” (priority 2006, published 2010)
# By UniProt entry, the sequences of proteins in these tests, tags left out. Residues count along the entry.
# UniProt P00592, 23-146 limits assumed: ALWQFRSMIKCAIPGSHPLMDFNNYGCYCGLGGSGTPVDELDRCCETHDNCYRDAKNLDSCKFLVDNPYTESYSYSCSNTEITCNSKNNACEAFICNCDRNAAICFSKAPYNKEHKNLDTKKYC
# What was measured:
# Human blood erythrocytes [1] = experiment: Haemolytic activity assay; type: cell-based
# MDCK = experiment: Cytotoxicity; conditions: read-out: Cytotoxicity IC50 MDCK; Table 1c
# A 549 = experiment: Cytotoxicity; conditions: read-out: Cytotoxicity IC50 A 549; Table 1c
# ppPLA2 [2] = target: T1, ppPLA2 (Sus scrofa, UniProt P00592); experiment: Phospholipase inhibition, radiometric assay; conditions: read-out: Concentration required for 50% inhibition of ppPLA2
# Human blood erythrocytes [3] = conditions: background statement; cited from earlier work
# ppPLA2 [4] = target: T1, ppPLA2; conditions: background statement; cited from earlier work
molecule,measurement,setting,value
CCCCC(CCCC)c1cc[n+](C)cc1C,Hemolytic activity (in % of positive control which represents 100% lysis),Human blood erythrocytes [1]; 3.5 μM,0%
same,Hemolytic activity (in % of positive control which represents 100% lysis),Human blood erythrocytes [1]; 17.5 μM,5%
same,Hemolytic activity (in % of positive control which represents 100% lysis),Human blood erythrocytes [1]; 44 μM,75%
same,Hemolytic activity (in % of positive control which represents 100% lysis),Human blood erythrocytes [1]; 88 μM,100%
same,Hemolytic activity (in % of positive control which represents 100% lysis),Human blood erythrocytes [1]; 175 μM,100%
same,Hemolytic activity (in % of positive control which represents 100% lysis),Human blood erythrocytes [1]; 350 μM,100%
"1,12-bis[3-Methyl,4-pentyl(2-butyl)pyridinium]dodecane",IC50,MDCK,10 µM
same,IC50,A 549,10 µM
CCCCCc1cc[n+](CCCCCCCCCCCCCC[n+]2ccc(CCCCC)cc2)cc1,IC50,ppPLA2 [2],> 125 µM
"1,12-bis(3,4-Dipentylpyridinium)dodecane",IC50,MDCK,55 µM
same,IC50,A 549,40 µM
CCOC(=O)Cc1cc[n+](C)cc1,Hemolytic activity (in % of positive control which represents 100% lysis),Human blood erythrocytes [1]; 3.5 μM,0%
same,Hemolytic activity (in % of positive control which represents 100% lysis),Human blood erythrocytes [1]; 17.5 μM,0%
same,Hemolytic activity (in % of positive control which represents 100% lysis),Human blood erythrocytes [1]; 44 μM,0%
same,Hemolytic activity (in % of positive control which represents 100% lysis),Human blood erythrocytes [1]; 88 μM,0%
same,Hemolytic activity (in % of positive control which represents 100% lysis),Human blood erythrocytes [1]; 175 μM,0%
same,Hemolytic activity (in % of positive control which represents 100% lysis),Human blood erythrocytes [1]; 350 μM,0%
"1,12-bis[4-(1-pentene)pyiridinium]dodecane dichloride",IC50,MDCK,> 350 µM
same,IC50,A 549,> 350 µM
CCCCCc1cc[n+](C)cc1CCCCC,Hemolytic activity (in % of positive control which represents 100% lysis),Human blood erythrocytes [1]; 3.5 μM,0%
same,Hemolytic activity (in % of positive control which represents 100% lysis),Human blood erythrocytes [1]; 17.5 μM,50%
same,Hemolytic activity (in % of positive control which represents 100% lysis),Human blood erythrocytes [1]; 44 μM,50%
same,Hemolytic activity (in % of positive control which represents 100% lysis),Human blood erythrocytes [1]; 88 μM,100%
same,Hemolytic activity (in % of positive control which represents 100% lysis),Human blood erythrocytes [1]; 175 μM,100%
same,Hemolytic activity (in % of positive control which represents 100% lysis),Human blood erythrocytes [1]; 350 μM,100%
CCCCCCCCNc1cc[n+](CCCCCCCCCC[n+]2ccc(NCCCCCCCC)cc2)cc1,"Haemolytic activity, in words",Human blood erythrocytes [3],strongly hemolytic
same,"Inhibition of ppPLA2, in words",ppPLA2 [4],strong inhibitor
CCCCCc1cc[n+](CCCCCCCCCCCC[n+]2ccc(CCCCC)cc2)cc1,IC50,A 549,230 µM
12-(4-Pentylpyridinium)dodecabromide,IC50,MDCK,40 µM
same,IC50,A 549,20 µM
CCCCCc1cccc[n+]1CCCCCCCCCCCC[n+]1ccccc1CCCCC,IC50,MDCK,300 µM
